The text below walks through data of ChEMBL document CHEMBL5576133, “Development of VU6036864: A Triazolopyridine-Based High-Quality Antagonist Tool Compound of the M5 Muscarinic Acetylcholine Receptor” (J Med Chem, 2024).

The chains behind the UniProt entries cited, without tags or fusion partners. Where a name states a change or a piece, a line headed by the entry shows the natural chain unless it says otherwise.
UniProt Q12809: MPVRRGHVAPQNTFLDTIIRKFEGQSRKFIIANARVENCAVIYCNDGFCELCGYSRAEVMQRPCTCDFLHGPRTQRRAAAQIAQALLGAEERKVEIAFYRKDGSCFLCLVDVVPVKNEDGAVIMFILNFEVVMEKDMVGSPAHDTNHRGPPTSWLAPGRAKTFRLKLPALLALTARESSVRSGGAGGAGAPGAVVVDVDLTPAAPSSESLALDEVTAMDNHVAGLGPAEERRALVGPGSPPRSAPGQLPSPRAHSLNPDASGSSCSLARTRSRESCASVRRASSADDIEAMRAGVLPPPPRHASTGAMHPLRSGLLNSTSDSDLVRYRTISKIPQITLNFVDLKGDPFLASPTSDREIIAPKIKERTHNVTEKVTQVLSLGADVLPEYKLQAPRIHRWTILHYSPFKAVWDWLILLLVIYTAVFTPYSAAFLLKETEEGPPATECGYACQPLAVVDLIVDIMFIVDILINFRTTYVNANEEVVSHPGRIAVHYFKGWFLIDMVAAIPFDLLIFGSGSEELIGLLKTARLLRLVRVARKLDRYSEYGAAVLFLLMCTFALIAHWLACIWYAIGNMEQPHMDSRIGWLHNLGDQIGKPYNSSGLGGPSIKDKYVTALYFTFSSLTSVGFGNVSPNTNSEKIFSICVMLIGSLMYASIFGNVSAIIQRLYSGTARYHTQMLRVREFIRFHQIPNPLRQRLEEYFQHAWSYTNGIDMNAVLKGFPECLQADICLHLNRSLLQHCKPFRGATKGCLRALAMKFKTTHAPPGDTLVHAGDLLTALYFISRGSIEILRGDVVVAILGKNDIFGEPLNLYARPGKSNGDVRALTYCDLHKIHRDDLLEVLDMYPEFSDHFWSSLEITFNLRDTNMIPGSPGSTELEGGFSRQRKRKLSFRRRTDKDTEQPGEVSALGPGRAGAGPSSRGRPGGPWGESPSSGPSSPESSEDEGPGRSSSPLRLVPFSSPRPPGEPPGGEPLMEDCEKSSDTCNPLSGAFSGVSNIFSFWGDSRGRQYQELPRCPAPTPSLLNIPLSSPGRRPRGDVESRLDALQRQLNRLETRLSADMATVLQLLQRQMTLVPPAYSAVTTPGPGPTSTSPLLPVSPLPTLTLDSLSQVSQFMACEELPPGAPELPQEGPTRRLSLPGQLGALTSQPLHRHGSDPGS

The nature of data set [1]: in vitro. The following applies: dog, MDCK-MDR1.
A short description of data set [2]: in vitro. The following applies: rat, liver microsomes. For orientation: Liver microsomes are vesicles of endoplasmic reticulum, rich in cytochrome P450 enzymes.
Another data set concerns the target hERG (KCNH2) (Homo sapiens, UniProt Q12809). In words: in vitro.
Data set [3] is described as follows: in vitro. The settings on record: cynomolgus monkey, liver microsomes.

For the compound `Cc1ncc(S(=O)(=O)N2CCC(c3cn4ncnc4cc3C)CC2)s1`, in the data set “in vitro [1]”, the apparent permeability coefficient (Papp) at 2 h, 5 µM worked out at 20 ×10⁻⁶ cm/s.

As for `Cc1ncc(S(=O)(=O)N2CCC(c3cn4ncnc4cc3Cl)CC2)s1`, the CLhep predicted at 0.75 h, 1 µM in “in vitro [2]” was 42 mL/min/kg. The compound further displayed an inhibition at 0.05 h, 10 µM against hERG (KCNH2) of 62.8%. The CLhep predicted in the data set “in vitro [3]” is 29 mL/min/kg.

Usually Papp stands for a coefficient for how fast a substance crosses the barrier. As usually defined, the inhibition is the percentage by which the read-out fell short of the control.
